This passage reports IC50 results from ChEMBL document CHEMBL1131253, “A pyridoxine cyclic phosphate and its 6-azoaryl derivative selectively potentiate and antagonize activation of P2X1 receptors” (J Med Chem, 1998).

For the assay, the target named is T1, P2X purinoceptor 3 (Rattus norvegicus, UniProt P49654).
T1 sequence (P49654 whole entry): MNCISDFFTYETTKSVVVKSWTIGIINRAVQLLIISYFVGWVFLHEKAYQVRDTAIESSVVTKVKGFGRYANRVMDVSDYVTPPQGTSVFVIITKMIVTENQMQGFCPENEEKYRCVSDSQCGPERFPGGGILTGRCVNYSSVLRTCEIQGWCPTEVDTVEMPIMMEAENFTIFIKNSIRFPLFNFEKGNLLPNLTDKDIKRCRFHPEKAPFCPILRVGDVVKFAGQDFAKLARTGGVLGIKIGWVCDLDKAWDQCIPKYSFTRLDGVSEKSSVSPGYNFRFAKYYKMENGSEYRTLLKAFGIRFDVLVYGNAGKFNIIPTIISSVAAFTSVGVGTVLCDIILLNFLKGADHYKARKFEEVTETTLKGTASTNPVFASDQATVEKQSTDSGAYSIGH
Nature of the assay: Compound was tested in a functional ion channel assay of ATP-induced current at recombinant rat P2X3 receptor expressed in Xenopus oocytes. It is filed as cell-based, Oocyte.

For `Cc1nc(/N=N/c2cc(S(=O)(=O)O)ccc2S(=O)(=O)O)c(COP(=O)(O)O)c(C=O)c1O` [ISOPPADS], the IC50 turned out to be 83.5 µM.

Broadly, the IC50 is the concentration needed to halve the response being measured.
